This is an account of results in patent US20240408138A1 (UNIVERSITY OF CHICAGO, published 2024).

The assay has as its target T1, INCENP N-terminal domain (1-58), His- and Avi-tagged, biotinylated (UniProt Q9NQS7 1-58, biotinylated (Avi-tag, co-expressed E. coli biotin ligase BirA)).
T1 construct: range 1-58; Expressed in E. coli BL21(DE3); also called INC-N; INCENP N-terminal domain (AA 1-58); not shown: His-tag and Avi-tag
T1 sequence (looked up): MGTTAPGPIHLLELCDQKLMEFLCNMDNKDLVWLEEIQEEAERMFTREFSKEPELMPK
The experiment in a line: single-point protein ELISA, 200 nM Fab on 50 nM immobilised biotinylated target, protein L-HRP, A450. As for the experimental part:
To rapidly reconfirm the binding and specificity of the obtained Fabs after reformatting into the expression vectors single-point Fab ELISA was performed (FIG. 2). Briefly, 50 nM Avi-tagged targets were immobilized on the prepared NAV-coated and blocked with 0.5% BSA in PBS 96-well ELISA plates. The target coated plates were washed with appropriate buffer (TBST or PBST) and were incubated with 200 nM Fab for 20 minutes and then washed. The washed plates were incubated with protein L conjugated with HRP (1:5000 diluted in TBST) for 30 minutes. Plates were washed and the reaction was developed using the TMB chromogenic substrate (Thermofisher) and subsequently quenched with 1M HCl. Absorbance was read at 450 nm on Epoch plate reader.
A general note: ELISA stands for enzyme-linked immunosorbent assay.

B1: INC-N-02 (Fab, V domains shown)
VH: EVQLVESGGGLVQPGGSLRLSCAASGFNFYSSIHWVRQAPGKGLEWVASIYSYYGSTYYADSVKGRFTISADTSKNTAYLQMNSLRAEDTAVYYCARYSRWGWYTYGAFDYWGQGTLVTVSS
VL: DIQMTQSPSSLSASVGDRVTITCRASQSVSSAVAWYQQKPGKAPKLLIYSASSLYSGVPSRFSGSRSGTDFTLTISSLQPEDFATYYCQQMMWFPITFGQGTKVEIKR
In the case of B1, the binding result is given as “binds”.
